These results are taken from patent publication US6787569B1, “Therapeutic guanidines” (Cambridge NeuroScience, Inc., priority 1994, dated 2004).

For experiment [1], the system named is depolarization-induced 3H-glutamate release from brain nerve terminals. The experiment is described as follows: Inhibition of 3H-glutamate release, high [K+] depolarization, rapid superfusion of synaptosomes. The experiment is classed as biochemical. The following applies: rat brain synaptosomes; for % Inhibition of ^3H-Glu Rel @ 0.3 μM: 0.3 μM compound; for % Inhibition of ^3H-Glu Rel @ 1 μM: 1 μM compound.

The test system of experiment [2] is veratridine-induced 3H-glutamate release from brain nerve terminals (voltage-activated presynaptic Na channels). The experiment is described as follows: Inhibition of veratridine-induced 3H-glutamate release, rapid superfusion of synaptosomes. The following applies: 3 μM compound; 50 μM veratridine-induced release; rat brain synaptosomes. It counts as biochemical.

On to N,N′-bis(benzyloxyphenyl)guanidine, for which, in experiment [1], the “% Inhibition of ^3H-Glu Rel @ 0.3 μM” value is 46%.
Turning to “N-(1-Naphthylmethyl)-N-(4-tert-butylbenzyl)guanidine.HCl [Example 52]”, the “% Inhibition of ^3H-Glu Rel @ 3 μM (*veratridine-induced glutamate release assay)” value in experiment [2] is 55* %.
With “N-(5-Acenaphthyl)-N′-(indolinyl)guanidine.mesylate [Example 29]”, the “% Inhibition of ^3H-Glu Rel @ 3 μM” value in experiment [1] (3 μM compound) was determined as 22%.
“N-(4-sec-Butylphenyl)-N-(4-tert-butylbenzyl)-N′-(4-propylpiperidinyl)guanidine.HCl [Example 76]”: in experiment [1], the “% Inhibition of ^3H-Glu Rel @ 0.3 μM” value was 45%.
Regarding “N,N′-Bis-(3-(1′-methyl-2′-phenyl)ethyl)guanidine.HCl [Example 94]”, the “% Inhibition of ^3H-Glu Rel @ 1 μM” value in experiment [1] is listed as 66%.
On to “N,N′-(sec-Butylphenyl)-N′-(2-phenoxyethyl)guanidine.HCl [Example 45]”, for which the “% Inhibition of ^3H-Glu Rel @ 1 μM” value in experiment [1] amounted to 57%.
Take “N-(3-Naphthylmethyleneoxyphenyl)-N′-(4-tert-butylphenyl)guanidine.mesylate [Example 103]”: in experiment [1], the “% Inhibition of ^3H-Glu Rel @ 0.3 μM” value is reported as 50%.
For “N-(5-Acenaphthyl)-N′-(1-benz[cd]indolinyl)guanidine.HCl [Example 117]”, the “% Inhibition of ^3H-Glu Rel @ 1 μM” value in experiment [1] turned out to be 39%.
